We go through six proteins from patent publication US20150030601.

Protein sequences, listed by entry. Tags and fused reporters are not part of them.
NEDD8 (Neural precursor cell-Expressed Developmentally Downregulated 8), Q15843, UniProt Q15843, whole entry, looked up: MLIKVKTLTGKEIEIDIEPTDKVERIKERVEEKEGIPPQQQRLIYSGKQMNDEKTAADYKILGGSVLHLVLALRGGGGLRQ

Residue numbers refer to the chain shown, from its start. Names may count otherwise.

The data set deals with NEDD8 (Neural precursor cell-Expressed Developmentally Downregulated 8), Q15843.

B1: Recombinant NAE, wild type (NAE1 / tagged NAEβ), as used in the pyrophosphate exchange and transthiolation assays (protein)
chain 1: AQLGKLLKEQKYDRQLRLWGDHGQEALESAHVCLINATATGTEILKNLVLPGIGSFTIIDGNQVSGEDAGNNFFLQRSSIGKNRAEAAMEFLQELNSDVSGSFVEESPENLLDNDPSFFCRFTVVVATQLPESTSLRLADVLWNSQIPLLICRTYGLVGYMRIIIKEHPVIESHPDNALEDLRLDKPFPELREHFQSYDLDHMEKKDHSHTPWIVIIAKYLAQWYSETNGRIPKTYKEKEDFRDLIRQGILKNENGAPEDEENFEEAIKNVNTALNTTQIPSSIEDIFNDDRCINITKQTPSFWILARALKEFVAKEGQGNLPVRGTIPDMIADSGKYIKLQNVYREKAKKDAAAVGNHVAKLLQSIGQAPESISEKELKLLCSNSAFLRVVRCRSLAEEYGLDTINKDEIISSMDNPDNEIVLYLMLRAVDRFHKQQGRYPGVSNYQVEEDIGKLKSCLTGFLQEYGLSVMVKDDYVHEFCRYGAAEPHTIAAFLGGAAAQEVIKIITKQFVIFNNTYIYSGMSQTSATFQL
chain 2: ADGEEPEKKRRRIEELLAEKMAVDGGCGDTGDWEGRWNHVKKFLERSGPFTHPDFEPSTESLQFLLDTCKVLVIGAGGLGCELLKNLALSGFRQIHVIDMDTIDVSNLNRQFLFRPKDIGRPKAEVAAEFLNDRVPNCNVVPHFNKIQDFNDTFYRQFHIIVCGLDSIIARRWINGMLISLLNYEDGVLDPSSIVPLIDGGTEGFKGNARVILPGMTACIECTLELYPPQVNFPMCTIASMPRLPEHCIEYVRMLQWPKEQPFGEGVPLDGDDPEHIQWIFQKSLERASQYNIRGVTYRLTQGVVKRIIPAVASTNAVIAAVCATEVFKIATSAYIPLNNYLVFNDVDGLYTYTFEAERKENCPACSQLPQNIQFSPSAKLQEVLDYLTNSASLQMKSPAITATLEGKNRTLYLQSVTSIEERTRPNLSKTLKELGLVDGQELAVADVTTPQTVLFKLHFTS
For the protein B1, the KM NEDD8 (pyrophosphate exchange assay) came to 0.044 µM.

B2: Recombinant NAE with NAEβ A171T, as used in the pyrophosphate exchange and transthiolation assays (protein)
chain 1: B1 chain 1
chain 2: B1 chain 2 with A170T
For the protein B2, the KM NEDD8 (pyrophosphate exchange assay) is 0.08 µM.

B3: Recombinant NAE with NAEβ N209K, as used in the pyrophosphate exchange and transthiolation assays (protein)
chain 1: B1 chain 1
chain 2: B1 chain 2 with N208K
With B3, the KM NEDD8 (pyrophosphate exchange assay) was found to be 0.43 µM.

B4: Recombinant NAE with NAEβ E204K, as used in the pyrophosphate exchange and transthiolation assays (protein)
chain 1: B1 chain 1
chain 2: B1 chain 2 with E203K
Take B4: the KM NEDD8 (pyrophosphate exchange assay) amounted to 0.48 µM.

B5: Recombinant NAE with NAEβ G201V, as used in the pyrophosphate exchange and transthiolation assays (protein)
chain 1: B1 chain 1
chain 2: B1 chain 2 with G200V
Take B5: the KM NEDD8 (pyrophosphate exchange assay) turned out to be 3.5 µM.

B6: Recombinant NAE with NAEβ A171D, as used in the pyrophosphate exchange assay (protein)
chain 1: B1 chain 1
chain 2: B1 chain 2 with A170D
In the case of B6, the KM NEDD8 (pyrophosphate exchange assay) is 0.016 µM.
